The text below walks through data of ChEMBL document CHEMBL2177099, “Discovery of 1-[4-(N-benzylamino)phenyl]-3-phenylurea derivatives as non-peptidic selective SUMO-sentrin specific protease (SENP)1 inhibitors” (Bioorg Med Chem Lett, 2012).

Molecules are shown by their SMILES. Activity calls are given as the source filed them. The rule behind the calls is not given here.

The target of the assay is T1, Sentrin-specific protease 1 (Homo sapiens) (UniProt Q9P0U3).
T1 sequence (whole entry): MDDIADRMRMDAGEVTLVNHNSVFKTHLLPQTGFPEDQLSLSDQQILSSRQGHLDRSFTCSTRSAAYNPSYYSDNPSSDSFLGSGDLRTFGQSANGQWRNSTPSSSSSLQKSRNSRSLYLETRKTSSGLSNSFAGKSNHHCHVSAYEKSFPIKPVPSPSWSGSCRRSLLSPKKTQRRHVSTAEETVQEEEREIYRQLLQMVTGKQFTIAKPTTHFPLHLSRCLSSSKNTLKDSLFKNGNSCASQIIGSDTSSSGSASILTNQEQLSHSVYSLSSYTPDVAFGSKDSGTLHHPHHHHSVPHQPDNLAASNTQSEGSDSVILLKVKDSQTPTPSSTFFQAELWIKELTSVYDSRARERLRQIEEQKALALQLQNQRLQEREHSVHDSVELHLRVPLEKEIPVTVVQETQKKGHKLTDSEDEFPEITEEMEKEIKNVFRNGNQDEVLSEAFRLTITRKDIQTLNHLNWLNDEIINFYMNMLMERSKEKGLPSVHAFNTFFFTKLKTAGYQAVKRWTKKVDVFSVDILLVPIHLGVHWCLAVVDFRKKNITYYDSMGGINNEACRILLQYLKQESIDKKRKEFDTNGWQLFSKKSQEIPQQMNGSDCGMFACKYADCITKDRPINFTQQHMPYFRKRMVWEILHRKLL
The experiment in a line: Binding affinity to SENP1 in human HeLa cells after 1 hr by affinity chromatography/Western blot analysis. The class given is cell-based. In general terms: In western blotting, separated proteins are transferred to a membrane and probed.

Take `COC(=O)c1cccc(CNc2ccc(NC(=O)Nc3ccc(NC(=O)CCCCCNC(=O)CCCCCNC(=O)CCC[C@@H]4SC[C@@H]5NC(=O)N[C@@H]54)cc3)cc2)c1`: the result was Active.

In the case of `O=C(O)CCCCCNC(=O)CCCCCNC(=O)CCC[C@@H]1SC[C@@H]2NC(=O)N[C@@H]21`, the result was inactive.
